## Cyclic peptide permeability, from CycPeptMPDB

Source: CycPeptMPDB (Li et al. 2023), which took these values from Townsend et al. 2020, doi:10.26434/chemrxiv.13335941.v1.

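Conditions beyond the assay type are not listed; see the original paper. Other peptides of the study may be missing here. Peptides that the database sets to -10, its floor, are left out.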

PAMPA is the parallel artificial membrane permeability assay, which has no cells and reads passive diffusion.
Values are log10 P with P in cm/s, so -5 is more permeable than -7.

| SMILES | PAMPA (log10 cm/s) |
|---|---|
| CC(C)C[C@@H]1NC(=O)[C@@H](C)N(C)C(=O)[C@H](Cc2ccccc2)NC(=O)CN(Cc2ccccc2)C(=O)[C@@H]2CCCN2C(=O)[C@@H](CC(C)C)N(C)C1=O | -5.14 |
| CC(C)C[C@@H]1NC(=O)C[C@H](Cc2ccccc2)NC(=O)[C@H]2CCCN2C(=O)[C@H](Cc2ccccc2)NC(=O)CN(Cc2ccccc2)C(=O)[C@@H]2CCCN2C(=O)[C@@H](CC(C)C)N(C)C1=O | -5.69 |
| CC(C)C[C@@H]1C(=O)N[C@@H](Cc2ccccc2)C(=O)N2CCC[C@@H]2C(=O)N(C)[C@@H](C)C(=O)N[C@H](CC(C)C)C(=O)N[C@H](CC(C)C)C(=O)N2CCC[C@@H]2C(=O)N1C | -5.30 |
| CC(C)C[C@@H]1NC(=O)[C@@H](C)N(C)C(=O)[C@@H]2CCCN2C(=O)[C@H](Cc2ccccc2)NC(=O)[C@H](CC(C)C)N(C)C(=O)[C@@H]2CCCN2C(=O)[C@@H](CC(C)C)NC1=O | -5.32 |
| CC(C)C[C@H]1NC(=O)[C@@H]2CCCN2C(=O)[C@@H](CC(C)C)NC(=O)CN(Cc2ccccc2)C(=O)C[C@H](Cc2ccccc2)NC(=O)[C@@H]2CCCN2C(=O)[C@H](Cc2ccccc2)NC1=O | -5.82 |
| CC(C)C[C@@H]1C(=O)N2CCC[C@H]2C(=O)N[C@H](CC(C)C)C(=O)N[C@@H](Cc2ccccc2)C(=O)N2CCC[C@@H]2C(=O)N(C)[C@@H](C)C(=O)N(C)[C@H](CC(C)C)C(=O)N1C | -5.81 |
| CC(C)C[C@@H]1NC(=O)[C@@H]2CCCN2C(=O)[C@H](CC(C)C)N(C)C(=O)[C@H](CC(C)C)NC(=O)C[C@H](Cc2ccccc2)NC(=O)[C@H](Cc2ccccc2)NC1=O | -5.58 |
| CC(C)C[C@@H]1C(=O)N(C)[C@H](CC(C)C)C(=O)N2CCC[C@H]2C(=O)N(C)[C@H](CC(C)C)C(=O)N[C@@H](Cc2ccccc2)C(=O)N2CCC[C@@H]2C(=O)N[C@@H](Cc2ccccc2)CC(=O)N1C | -5.17 |
| CC(C)C[C@@H]1NC(=O)[C@H](CC(C)C)N(C)C(=O)[C@H](C)N(C)C(=O)[C@H]2CCCN2C(=O)[C@H](Cc2ccccc2)NC(=O)[C@H](CC(C)C)N(C)C(=O)[C@H]2CCCN2C1=O | -4.98 |
| CC(C)C[C@@H]1C(=O)N[C@@H](Cc2ccccc2)C(=O)N2CCC[C@@H]2C(=O)N[C@@H](C)C(=O)N[C@H](CC(C)C)C(=O)N(Cc2ccccc2)CC(=O)N2CCC[C@@H]2C(=O)N1C | -5.62 |
| CC(C)C[C@@H]1NC(=O)C[C@H](Cc2ccccc2)NC(=O)[C@H](Cc2ccccc2)NC(=O)[C@H](CC(C)C)NC(=O)[C@H]2CCCN2C(=O)C[C@H](Cc2ccccc2)NC1=O | -5.26 |
| CC(C)C[C@H]1C(=O)N(C)[C@@H](CC(C)C)C(=O)N2CCC[C@H]2C(=O)N(Cc2ccccc2)CC(=O)N[C@@H](Cc2ccccc2)C(=O)N2CCC[C@@H]2C(=O)N(C)[C@H](C)C(=O)N1C | -5.29 |
| CC(C)C[C@H]1C(=O)N[C@@H](Cc2ccccc2)CC(=O)N2CCC[C@H]2C(=O)N(C)[C@@H](CC(C)C)C(=O)N[C@@H](Cc2ccccc2)C(=O)N2CCC[C@@H]2C(=O)N[C@@H](Cc2ccccc2)CC(=O)N1C | -5.23 |

Extract of 2 entries:

| SMILES | PAMPA (log10 cm/s) |
|---|---|
| CC(C)C[C@H]1C(=O)N(C)[C@@H](CC(C)C)C(=O)N2CCC[C@H]2C(=O)N(Cc2ccccc2)CC(=O)N[C@@H](Cc2ccccc2)C(=O)N2CCC[C@@H]2C(=O)N(C)[C@H](C)C(=O)N1C | -5.29 |
| CC(C)C[C@@H]1NC(=O)[C@H](CC(C)C)N(C)C(=O)[C@H](C)N(C)C(=O)[C@H]2CCCN2C(=O)[C@H](Cc2ccccc2)NC(=O)[C@H](CC(C)C)N(C)C(=O)[C@H]2CCCN2C1=O | -4.98 |